Reference: ChEMBL document CHEMBL5131394, “Structure-activity and mechanistic studies of non-peptidic inhibitors of the PLK1 polo box domain identified through REPLACE” (Eur J Med Chem, 2022)

By UniProt entry, the sequences of proteins in these tests, tags left out. Where a name states a change or a piece, a line headed by the entry shows the natural chain unless it says otherwise.
UniProt Q9H4B4: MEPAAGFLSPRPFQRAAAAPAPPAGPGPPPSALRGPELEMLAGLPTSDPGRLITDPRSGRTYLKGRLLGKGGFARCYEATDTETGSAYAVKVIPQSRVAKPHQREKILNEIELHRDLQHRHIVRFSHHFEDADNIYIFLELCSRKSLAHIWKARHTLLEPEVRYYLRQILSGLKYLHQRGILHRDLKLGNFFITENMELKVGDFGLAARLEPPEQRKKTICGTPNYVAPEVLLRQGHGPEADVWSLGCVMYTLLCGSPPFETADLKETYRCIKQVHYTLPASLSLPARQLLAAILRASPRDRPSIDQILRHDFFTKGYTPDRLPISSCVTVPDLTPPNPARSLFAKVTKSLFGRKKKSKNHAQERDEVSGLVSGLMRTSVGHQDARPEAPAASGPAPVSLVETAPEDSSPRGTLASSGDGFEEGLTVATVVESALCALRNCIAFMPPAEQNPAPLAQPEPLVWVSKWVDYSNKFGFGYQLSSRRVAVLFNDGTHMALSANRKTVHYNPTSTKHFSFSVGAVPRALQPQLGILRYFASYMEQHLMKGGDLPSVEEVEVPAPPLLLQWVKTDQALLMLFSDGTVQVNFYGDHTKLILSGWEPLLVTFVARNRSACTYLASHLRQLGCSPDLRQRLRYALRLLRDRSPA

Tests used:
[1] = target: T1, Serine/threonine-protein kinase PLK3 (Homo sapiens, UniProt Q9H4B4)
[2] = target: T1, Serine/threonine-protein kinase PLK3; remark: listed apart in the source

Row | Structure (SMILES) | IC50 [1] [µM] | EC50 [2] [µM]
1 | CCCCCCCCc1ccc(C(=O)Nc2cccc(O)c2C(=O)O)cc1 | 12.1 | –
2 | CCCCCCCCc1ccc(C(=O)Nc2ccc(C)cc2C(=O)O)cc1 | 7.7 | 6.9
3 | CCCCCCCCc1ccc(C(=O)Nc2cc(C)ccc2C(=O)O)cc1 | 7.4 | –
4 | CCCCCCCCc1ccc(C(=O)Nc2cccc([N+](=O)[O-])c2C(=O)O)cc1 | 10 | –
5 | CCCCCCCCc1ccc(C(=O)Nc2cccc(F)c2C(=O)O)cc1 | 13.2 | –
6 | CCCCCCCCc1ccc(C(=O)Nc2cccc(C(F)(F)F)c2C(=O)O)cc1 | 22.9 | –
